# Details: experimental values compiled from the literature
row,SMILES,logP
1,CCCOP(=O)(CC)Oc1ccc([N+](=O)[O-])cc1 (stereo not drawn),2.2
2,CN(C)C(=O)Oc1cccnc1[N+](=O)[O-],0.54
3,CCOP(=O)(CC)SCCSCC (stereo not drawn),2.03
4,CN(C)C(=O)Oc1cccnc1Cl,1.04
5,CN(C)C(=O)Oc1cccnc1Br,1.14
6,COC1C(Cl)C(Cl)C(Cl)C(Cl)C1SC (stereo not drawn),3.3
7,CN(C)C(=O)Oc1cccnc1I,1.26
8,CSC1C(Cl)C(Cl)C(Cl)C(Cl)C1Cl (stereo not drawn),3.85

# Reference: the OPERA property sets (Mansouri et al. 2018)
